Assay results published in PMC9907135 (Proceedings of the National Academy of Sciences of the …, 2022).

Experiments:
[1] = tested on: Expi293 cells; details: luminescence at Tfinal (22 hours) divided by Tinitial, measure of ATP levels, reflective of cell health
[2] = tested on: Expi293 cells; details: percentage of Helicons in cells after treatment and wash; Expi293 cells 1x10^6 cells/mL, 22 hours, 37°C; washed twice with DPBS; MS quantitation, single-point calibration; n=2, mean ± SD

Compound	CellTiter-Glo fold change ± SD [1]	Helicon in cells ± SD (%) [2]
CC[C@H](C)[C@H](NC(C)=O)C(=O)N[C@@H](CC(C)C)C(=O)N[C@H](C(=O)N[C@]1(C)CCCCCCC=CCCC[C@@](C)(C(=O)N[C@@H](CCC(N)=O)C(=O)N[C@@H](Cc2ccc(O)cc2)C(=O)N[C@@H](CCC(N)=O)C(N)=O)NC(=O)[C@H]([C@@H](C)O)NC(=O)[C@H](Cc2ccccc2)NC(=O)[C@H](C)NC(=O)[C@H](C)NC(=O)[C@H](CCC(=O)O)NC(=O)[C@H](Cc2ccc(O)cc2)NC1=O)[C@@H](C)O [FP08029]	1.1 ± 0.03	0.2 ± 0.0%
CC[C@H](C)[C@H](NC(C)=O)C(=O)N[C@@H](CC(C)C)C(=O)N[C@H](C(=O)N[C@]1(C)CCCCCCC=CCCC[C@@](C)(C(=O)N[C@@H](CCC(N)=O)C(=O)N[C@@H](Cc2ccc(O)cc2)C(=O)N[C@@H](CCC(N)=O)C(N)=O)NC(=O)[C@H]([C@@H](C)O)NC(=O)[C@H](Cc2ccccc2)NC(=O)[C@H](C)NC(=O)[C@H](C)NC(=O)[C@H](CCC(=O)O)NC(=O)[C@H](Cc2ccc(O)cc2)NC1=O)[C@@H](C)O [FP08030]	1.2 ± 0.02	0.3 ± 0.0%
